From PMC1805503 (Beilstein Journal of Organic Chemistry, 2007)
Like-named read-outs stand apart in the source and are kept apart here.

Protein sequences, listed by entry. Tags and fused reporters are not part of them.
UniProt P41145, whole entry: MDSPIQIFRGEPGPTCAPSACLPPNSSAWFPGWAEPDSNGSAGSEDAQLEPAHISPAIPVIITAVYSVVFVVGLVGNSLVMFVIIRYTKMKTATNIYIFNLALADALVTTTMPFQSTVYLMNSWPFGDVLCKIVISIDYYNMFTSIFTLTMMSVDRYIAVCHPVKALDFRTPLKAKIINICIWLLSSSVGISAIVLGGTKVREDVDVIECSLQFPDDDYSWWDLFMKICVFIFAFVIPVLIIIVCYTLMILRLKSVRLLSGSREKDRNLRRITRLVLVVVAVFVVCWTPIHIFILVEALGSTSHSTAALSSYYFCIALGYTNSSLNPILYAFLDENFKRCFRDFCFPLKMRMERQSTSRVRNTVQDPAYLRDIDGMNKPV

Legend:
human KOR [1] = molecular target: T1, human KOR (Homo sapiens, UniProt P41145); test: Inhibition of [3H]diprenorphine binding to CHO-hKOR membranes; details: for affinity at the KOR (in words): current samples; for Ki: read-out: Ki ± SEM
human KOR [2] = molecular target: T1, human KOR; details: read-out: Ki at the KOR, previous report; cited from earlier work

For CC(=O)O[C@H]1C[C@@H](C(=O)O)[C@]2(C)CC[C@H]3C(=O)O[C@H](c4ccoc4)C[C@]3(C)[C@H]2C1=O, the “affinity at the KOR (in words)” value (human KOR [1]) is listed as “no affinity”, the Ki (human KOR [1]) is listed as greater than 10000 nM and the Ki (human KOR [2]) is listed as greater than 1000 nM.

In the case of CC(=O)O[C@H]1C[C@@H](C(=O)O)[C@]2(C)CC[C@@H]3C(=O)O[C@H](c4ccoc4)C[C@]3(C)[C@H]2C1=O, the “affinity at the KOR (in words)” value (human KOR [1]) is listed as “no affinity”, the Ki (human KOR [1]) is listed as greater than 10000 nM and the Ki (human KOR [2]) is listed as 49 nM.
